Target: T1, full-length B-Catenin (Uniprot ID P35222) (Homo sapiens, UniProt P35222)
T1 construct: 10 nM full-length B-Catenin (Uniprot ID P35222)
Test: biochemical
Type: binding
Details: beta-Catenin FP IC50 (nM), competition fluorescence polarization

The chains behind the UniProt entries cited, without tags or fusion partners.
UniProt P35222, whole entry: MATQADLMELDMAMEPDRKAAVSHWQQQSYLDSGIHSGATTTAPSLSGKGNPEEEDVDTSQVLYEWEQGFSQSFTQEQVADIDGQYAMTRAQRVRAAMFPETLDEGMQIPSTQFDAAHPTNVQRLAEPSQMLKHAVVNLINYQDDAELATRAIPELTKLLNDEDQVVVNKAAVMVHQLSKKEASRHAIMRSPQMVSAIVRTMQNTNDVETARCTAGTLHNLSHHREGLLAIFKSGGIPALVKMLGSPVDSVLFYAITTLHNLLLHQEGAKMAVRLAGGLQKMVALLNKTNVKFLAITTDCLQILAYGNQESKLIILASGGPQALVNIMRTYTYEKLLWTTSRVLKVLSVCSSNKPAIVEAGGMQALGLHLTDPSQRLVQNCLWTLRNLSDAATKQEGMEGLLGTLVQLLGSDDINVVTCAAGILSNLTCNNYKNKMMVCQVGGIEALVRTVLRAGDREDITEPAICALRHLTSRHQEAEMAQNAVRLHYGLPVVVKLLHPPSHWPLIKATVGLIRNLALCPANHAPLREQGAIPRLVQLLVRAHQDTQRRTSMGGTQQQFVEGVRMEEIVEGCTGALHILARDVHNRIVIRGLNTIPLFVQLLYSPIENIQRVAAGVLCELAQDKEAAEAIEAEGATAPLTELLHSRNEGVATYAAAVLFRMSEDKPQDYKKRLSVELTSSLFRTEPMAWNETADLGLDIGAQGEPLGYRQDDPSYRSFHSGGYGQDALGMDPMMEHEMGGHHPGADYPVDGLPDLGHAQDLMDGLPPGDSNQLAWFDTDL

Row | IC50 | Compound
1 | > 1000 nM | CC(=O)N1CCC[C@]12CCCCCCC1(CCCCCCCCOC(=O)N3CC[C@@]4(C3)NC(=O)[C@H](CCCCNC(=O)CC[C@@H](C(=O)N[C@@H](C)C(N)=O)NC(=O)[C@H](Cc3csc5ccccc35)NC(=O)[C@H](Cc3ccsc3)NC4=O)NC(=O)[C@H](Cc3ccccc3)NC(=O)[C@H](C)NC(=O)C(C)(C)NC(=O)[C@H](Cc3cccc(C(=O)O)c3)NC(=O)[C@H](CC(=O)O)NC1=O)NC(=O)[C@H](CC(C)(C)C)NC(=O)[C@H]([C@H](C)O)NC2=O (relative stereo) [I-175, Ac-PL3-aThr-Npg-B5-Asp-3COOHF-Aib-Ala-Phe-Lys*3-PyrS2-3Thi-BztA-GlnR*3-Ala-NH2]
2 | < 50 nM | CC(=O)N1CCC[C@]12CC=CCCCC1(CCCC=CCCCOC(=O)N3CC[C@@]4(C3)NC(=O)[C@H](CCCCNC(=O)CC[C@@H](C(=O)N[C@@H](C)C(N)=O)NC(=O)[C@H](Cc3csc5ccccc35)NC(=O)[C@H](C3CCCCC3)NC4=O)NC(=O)[C@H](Cc3ccccc3)NC(=O)[C@H](C)NC(=O)C(C)(C)NC(=O)[C@H](Cc3cccc(C(=O)O)c3)NC(=O)[C@H](CC(=O)O)NC1=O)NC(=O)[C@H](CC(C)(C)C)NC(=O)[C@H](CC(=O)O)NC2=O (relative stereo) [I-537, Ac-PL3-Asp-Npg-B5-Asp-3COOHF-Aib-Ala-Phe-Lys*3-PyrS2-Chg-BztA-GlnR*3-Ala-NH2]
3 | > 1000 nM | CC(=O)N1CCC[C@]12CC=CCCCC1(CCCC=CCCCOC(=O)N3CC[C@@]4(C3)NC(=O)[C@H](CCCCNC(=O)CC[C@@H](C(=O)N[C@@H](C)C(N)=O)NC(=O)[C@H](Cc3csc5ccccc35)NC(=O)[C@H](Cc3ccccc3C(F)(F)F)NC4=O)NC(=O)[C@H](Cc3ccccc3)NC(=O)[C@H](C)NC(=O)[C@H](C)NC(=O)[C@H](CN(CC(=O)O)CC(F)(F)F)NC(=O)[C@H](CCO)NC1=O)NC(=O)[C@H](CC(C)(C)C)NC(=O)[C@H](CC(=O)O)NC2=O (single isomer, unassigned) [I-118, Ac-PL3-Asp-Npg-B5-Hse-TfeGA-Ala-Ala-Phe-Lys*3-PyrS2-2F3MeF-BztA-GlnR*3-Ala-NH2]
4 | > 1000 nM | CC(=O)N1CCC[C@]12CCCCCCC1(CCCCCCCCOC(=O)N3CC[C@@]4(C3)NC(=O)[C@H](CCCCNC(=O)CC[C@@H](C(=O)N[C@@H](C)C(N)=O)NC(=O)[C@H](Cc3csc5ccccc35)NC(=O)[C@H](Cc3ccsc3)NC4=O)NC(=O)[C@H](Cc3ccccc3)NC(=O)[C@H](C)NC(=O)C(C)(C)NC(=O)[C@H](Cc3cccc(C(=O)O)c3)NC(=O)[C@H](CC(=O)O)NC1=O)NC(=O)[C@H](CC(C)(C)C)NC(=O)[C@H]([C@@H](C)O)NC2=O (relative stereo) [I-173, Ac-PL3-Thr-Npg-B5-Asp-3COOHF-Aib-Ala-Phe-Lys*3-PyrS2-3Thi-BztA-GlnR*3-Ala-NH2]
5 | 750 to 1000 nM | CC(=O)N1CCC[C@]12CCCCCCC1(CCCCCCCCOC(=O)N3CC[C@@]4(C3)NC(=O)[C@H](CCCCNC(=O)CC[C@@H](C(=O)N[C@@H](C)C(N)=O)NC(=O)[C@H](Cc3csc5ccccc35)NC(=O)[C@H](Cc3ccsc3)NC4=O)NC(=O)[C@H](Cc3ccccc3)NC(=O)[C@H](C)NC(=O)C(C)(C)NC(=O)[C@H](Cc3cccc(C(=O)O)c3)NC(=O)[C@H](CC(=O)O)NC1=O)NC(=O)[C@H](CC(C)(C)C)NC(=O)[C@H](CO)NC2=O (relative stereo) [I-172, Ac-PL3-Ser-Npg-B5-Asp-3COOHF-Aib-Ala-Phe-Lys*3-PyrS2-3Thi-BztA-GlnR*3-Ala-NH2]
6 | > 1000 nM | CC(=O)N1CCC[C@]12CCCCCCC1(CCCCCCCCOC(=O)N3CC[C@@]4(C3)NC(=O)[C@H](CCCCNC(=O)CC[C@@H](C(=O)N[C@@H](C)C(N)=O)NC(=O)[C@H](Cc3csc5ccccc35)NC(=O)[C@H](Cc3ccsc3)NC4=O)NC(=O)[C@H](Cc3ccccc3)NC(=O)[C@H](C)NC(=O)C(C)(C)NC(=O)[C@H](Cc3cccc(C(=O)O)c3)NC(=O)[C@H](CCO)NC1=O)NC(=O)[C@H](CC(C)(C)C)NC(=O)[C@H](CC(=O)O)NC2=O (relative stereo) [I-180, Ac-PL3-Asp-Npg-B5-Hse-3COOHF-Aib-Ala-Phe-Lys*3-PyrS2-3Thi-BztA-GlnR*3-Ala-NH2]
7 | < 50 nM | CC(=O)N1CCC[C@]12CC=CCCCC1(CCCC=CCCCOC(=O)N3CC[C@@]4(C3)NC(=O)[C@H](CCCCNC(=O)CC[C@@H](C(=O)N[C@@H](C)C(N)=O)NC(=O)[C@H](Cc3csc5ccccc35)NC(=O)[C@H](Cc3ccsc3)NC4=O)NC(=O)[C@H](Cc3ccc(C)cc3)NC(=O)[C@H](C)NC(=O)C(C)(C)NC(=O)[C@H](Cc3cccc(C(=O)O)c3)NC(=O)[C@H](CC(=O)O)NC1=O)NC(=O)[C@H](CC(C)(C)C)NC(=O)[C@H](CC(=O)O)NC2=O (single isomer, unassigned) [I-588, Ac-PL3-Asp-Npg-B5-Asp-3COOHF-Aib-Ala-4MeF-Lys*3-PyrS2-3Thi-BztA-GlnR*3-Ala-NH2]

The next lines start with the compound.

Row | Compound | IC50
8 | CC(=O)N1CCC[C@]12CC=CCCCC1(CCCC=CCCCOC(=O)N3CC[C@@]4(C3)NC(=O)[C@H](CCCCNC(=O)CC[C@@H](C(=O)N[C@H](C)C(=O)N[C@@H](CO)C(N)=O)NC(=O)[C@H](Cc3csc5ccccc35)NC(=O)[C@H](Cc3ccsc3)NC4=O)NC(=O)[C@H](Cc3ccccc3)NC(=O)[C@H](C)NC(=O)C(C)(C)NC(=O)[C@H](Cc3cccc(C(=O)O)c3)NC(=O)[C@H](CC(=O)O)NC1=O)NC(=O)[C@H](CC(C)(C)C)NC(=O)[C@H](CC(=O)O)NC2=O (single isomer, unassigned) [I-460, Ac-PL3-Asp-Npg-B5-Asp-3COOHF-Aib-Ala-Phe-Lys*3-PyrS2-3Thi-BztA-GlnR*3-dAla-Ser-NH2] | < 50 nM
9 | CC(=O)N1CCC[C@]12CC=CCCCC1(CCCC=CCCCOC(=O)N3CC[C@@]4(C3)NC(=O)[C@H](CCC(=O)NCCCC[C@@H](C(N)=O)NC(=O)[C@H](Cc3csc5ccccc35)NC(=O)[C@H](Cc3ccccc3)NC4=O)NC(=O)[C@H](Cc3ccccc3)NC(=O)[C@H](C)NC(=O)[C@H](CCO)NC(=O)[C@H](CCC(N)=O)NC(=O)[C@H](CC(=O)O)NC1=O)NC(=O)[C@H](CC1CCCCC1)NC(=O)[C@H](CC(N)=O)NC2=O (relative stereo) [I-148, Ac-PL3-Asn-Cha-B5-Asp-Gln-Hse-Ala-Phe-GlnR*3-PyrS2-Phe-BztA-Lys*3-NH2] | 200 to 750 nM
10 | CC(=O)N1CCC[C@]12CC=CCCCC1(CCCC=CCCCOC(=O)N3CC[C@@]4(C3)NC(=O)[C@H](CCCCNC(=O)CC[C@@H](C(=O)N[C@@H](C)C(N)=O)NC(=O)[C@H](Cc3ccc5ccccc5c3)NC(=O)[C@H](CC3CCCC3)NC4=O)NC(=O)[C@H](Cc3ccccc3)NC(=O)[C@H](C)NC(=O)C(C)(C)NC(=O)[C@H](Cc3cccc(C(=O)O)c3)NC(=O)[C@H](CC(=O)O)NC1=O)NC(=O)[C@H](CC(C)(C)C)NC(=O)[C@H](CC(=O)O)NC2=O (single isomer, unassigned) [I-491, Ac-PL3-Asp-Npg-B5-Asp-3COOHF-Aib-Ala-Phe-Lys*3-PyrS2-CypA-2NapA-GlnR*3-Ala-NH2] | 50 to 200 nM
11 | CC(=O)N1CCC[C@]12CC=CCCCC1(CCCC=CCCCOC(=O)N3CC[C@@]4(C3)NC(=O)[C@H](CCCCNC(=O)CC[C@@H](C(=O)N[C@@H](C)C(N)=O)NC(=O)[C@H](Cc3csc5ccccc35)NC(=O)[C@H](Cc3ccsc3)NC4=O)NC(=O)[C@H](Cc3cccc(F)c3)NC(=O)[C@H](C)NC(=O)C(C)(C)NC(=O)[C@H](Cc3cccc(C(=O)O)c3)NC(=O)[C@H](CC(=O)O)NC1=O)NC(=O)[C@H](CC(C)(C)C)NC(=O)[C@H](CC(=O)O)NC2=O (single isomer, unassigned) [I-574, Ac-PL3-Asp-Npg-B5-Asp-3COOHF-Aib-Ala-3FF-Lys*3-PyrS2-3Thi-BztA-GlnR*3-Ala-NH2] | < 50 nM
12 | CC(=O)N1CCC[C@]12CC=CCCCC1(CCCC=CCCCOC(=O)N3CC[C@@]4(C3)NC(=O)[C@H](CCCCNC(=O)CC[C@@H](C(=O)N[C@@H](C)C(N)=O)NC(=O)[C@H](Cc3csc5ccccc35)NC(=O)[C@H](Cc3ccsc3)NC4=O)NC(=O)[C@H](Cc3ccccc3)NC(=O)[C@H](C)NC(=O)[C@H](CO)NC(=O)[C@H](Cc3cccc(C(=O)O)c3)NC(=O)[C@H](CCO)NC1=O)NC(=O)[C@H](CC(C)(C)C)NC(=O)[C@H](CC(=O)O)NC2=O (relative stereo) [I-87, Ac-PL3-Asp-Npg-B5-Hse-3COOHF-Ser-Ala-Phe-Lys*3-PyrS2-3Thi-BztA-GlnR*3-Ala-NH2] | 200 to 750 nM
13 | CC(=O)N1CCC[C@]12CC=CCCCC1(CCCC=CCCCOC(=O)N3CC[C@@]4(C3)NC(=O)[C@H](CCCCNC(=O)CC[C@@H](C(=O)N[C@@H](C)C(N)=O)NC(=O)[C@H](Cc3csc5ccccc35)NC(=O)[C@H](Cc3ccsc3)NC4=O)NC(=O)[C@H](Cc3ccccc3)NC(=O)[C@H](CC(=O)O)NC(=O)C(C)(C)NC(=O)[C@H](Cc3cccc(C(=O)O)c3)NC(=O)[C@H](CC(=O)O)NC1=O)NC(=O)[C@H](CC(C)(C)C)NC(=O)[C@H](CC(=O)O)NC2=O (relative stereo) [I-521, Ac-PL3-Asp-Npg-B5-Asp-3COOHF-Aib-Asp-Phe-Lys*3-PyrS2-3Thi-BztA-GlnR*3-Ala-NH2] | < 50 nM
14 | CC(=O)N1CCC[C@]12CC=CCCCC1(CCCC=CCCCOC(=O)N3CC[C@@]4(C3)NC(=O)[C@H](CCCCNC(=O)CC[C@@H](C(=O)N[C@@H](C)C(N)=O)NC(=O)[C@H](Cc3csc5ccccc35)NC(=O)[C@H](Cc3ccsc3)NC4=O)NC(=O)[C@H](Cc3cccc(C)c3)NC(=O)[C@H](C)NC(=O)C(C)(C)NC(=O)[C@H](Cc3cccc(C(=O)O)c3)NC(=O)[C@H](CC(=O)O)NC1=O)NC(=O)[C@H](CC(C)(C)C)NC(=O)[C@H](CC(=O)O)NC2=O (single isomer, unassigned) [I-590, Ac-PL3-Asp-Npg-B5-Asp-3COOHF-Aib-Ala-3MeF-Lys*3-PyrS2-3Thi-BztA-GlnR*3-Ala-NH2] | < 50 nM
15 | CC(=O)N1CCC[C@]12CC=CCCCC1(CCCC=CCCCOC(=O)N3CC[C@@]4(C3)NC(=O)[C@H](CCCCNC(=O)CC[C@@H](C(=O)N[C@@H](C)C(N)=O)NC(=O)[C@H](Cc3csc5ccccc35)NC(=O)[C@H](Cc3ccsc3)NC4=O)NC(=O)[C@H]([C@@H](C)c3c(C)cccc3C)NC(=O)[C@H](C)NC(=O)C(C)(C)NC(=O)[C@H](Cc3cccc(C(=O)O)c3)NC(=O)[C@H](CC(=O)O)NC1=O)NC(=O)[C@H](CC(C)(C)C)NC(=O)[C@H](CC(=O)O)NC2=O (relative stereo) [I-604, Ac-PL3-Asp-Npg-B5-Asp-3COOHF-Aib-Ala-SbMeXylA-Lys*3-PyrS2-3Thi-BztA-GlnR*3-Ala-NH2] | > 1000 nM
